Values quoted from earlier work, collected in patent US20090061024A1, “COMPOSITIONS AND METHODS EMPLOYING NMDA ANTAGONISTS FOR ACHIEVING AN ANESTHETIC-SPARING EFFECT” (Wyeth, priority 2007, published 2009).

Chains of the proteins cited; added tags and fusions are not shown. Residues count along the entry.
UniProt Q00959, 20-1464 limits assumed: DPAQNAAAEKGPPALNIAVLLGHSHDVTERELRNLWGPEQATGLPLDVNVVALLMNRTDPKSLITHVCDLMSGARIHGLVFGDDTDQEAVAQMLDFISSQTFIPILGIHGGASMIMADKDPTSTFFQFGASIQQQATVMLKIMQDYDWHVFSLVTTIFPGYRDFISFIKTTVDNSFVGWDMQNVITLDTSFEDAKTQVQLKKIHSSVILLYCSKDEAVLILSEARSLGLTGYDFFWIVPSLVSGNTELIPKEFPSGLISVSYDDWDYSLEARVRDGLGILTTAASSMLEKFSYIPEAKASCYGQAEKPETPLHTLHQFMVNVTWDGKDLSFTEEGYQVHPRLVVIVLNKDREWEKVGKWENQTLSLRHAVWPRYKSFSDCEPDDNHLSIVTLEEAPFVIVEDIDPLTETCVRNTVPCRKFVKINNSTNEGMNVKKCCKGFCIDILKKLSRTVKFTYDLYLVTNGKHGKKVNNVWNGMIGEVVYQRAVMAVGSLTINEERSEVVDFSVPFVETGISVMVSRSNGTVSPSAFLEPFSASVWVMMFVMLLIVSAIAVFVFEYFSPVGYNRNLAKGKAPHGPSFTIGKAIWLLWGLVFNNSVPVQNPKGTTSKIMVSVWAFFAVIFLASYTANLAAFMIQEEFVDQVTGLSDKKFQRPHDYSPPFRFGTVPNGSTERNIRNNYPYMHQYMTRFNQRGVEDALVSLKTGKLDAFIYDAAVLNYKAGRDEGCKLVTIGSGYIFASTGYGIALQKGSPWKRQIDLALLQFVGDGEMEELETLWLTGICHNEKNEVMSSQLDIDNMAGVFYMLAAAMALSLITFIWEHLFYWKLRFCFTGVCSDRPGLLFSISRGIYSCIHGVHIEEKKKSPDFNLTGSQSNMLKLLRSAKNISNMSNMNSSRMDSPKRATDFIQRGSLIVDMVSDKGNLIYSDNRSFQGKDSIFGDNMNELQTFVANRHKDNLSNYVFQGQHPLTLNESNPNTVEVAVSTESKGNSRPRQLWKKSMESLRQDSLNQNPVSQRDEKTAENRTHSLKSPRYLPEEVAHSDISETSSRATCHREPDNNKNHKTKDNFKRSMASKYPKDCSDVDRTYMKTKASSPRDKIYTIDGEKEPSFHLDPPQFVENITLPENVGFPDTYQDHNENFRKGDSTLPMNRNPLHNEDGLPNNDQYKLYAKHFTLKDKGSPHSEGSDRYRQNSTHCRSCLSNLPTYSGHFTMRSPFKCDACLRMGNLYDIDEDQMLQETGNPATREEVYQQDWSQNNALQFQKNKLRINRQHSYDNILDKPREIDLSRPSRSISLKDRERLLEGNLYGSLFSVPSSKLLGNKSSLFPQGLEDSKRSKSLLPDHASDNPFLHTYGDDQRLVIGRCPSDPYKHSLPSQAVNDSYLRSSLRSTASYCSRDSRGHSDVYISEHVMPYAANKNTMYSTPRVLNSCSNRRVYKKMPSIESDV

What was measured:
[1] = target: rodent NMDA receptors possessing the NR2A subunit (Rattus norvegicus, UniProt Q00959); settings: cited from earlier work
[2] = tested on: cingulate and retrosplenial cortices; settings: mice and rats; cited from earlier work
[3] = in vivo; cited from earlier work

## O=c1c2c(c1=O)N(CCP(=O)(O)O)CCCN2 [Perzinfotel, [2-(8,9-dioxo-2,6-diazabicyclo[5.2.0]non-1-(7)-en-2-yl)ethyl]phosphonic acid]
[1]
  selectivity for NMDA receptors possessing the NR2A subunit: 10 fold
[2]
  effectiveness:vacuolization ratio: ≤ 16
[3]
  doses devoid of many PCP-like effects, relative to those effective in an ischemia model: 4-10 times
